Experimental findings from patent publication US11174252B2, “Heterocyclic compounds as kinase inhibitors” (priority 2018, dated 2021) are described below.

Chains of the proteins cited; added tags and fusions are not shown. Lines headed by an entry give the natural chain unless they say otherwise; changes in a name come on top.
UniProt P11802: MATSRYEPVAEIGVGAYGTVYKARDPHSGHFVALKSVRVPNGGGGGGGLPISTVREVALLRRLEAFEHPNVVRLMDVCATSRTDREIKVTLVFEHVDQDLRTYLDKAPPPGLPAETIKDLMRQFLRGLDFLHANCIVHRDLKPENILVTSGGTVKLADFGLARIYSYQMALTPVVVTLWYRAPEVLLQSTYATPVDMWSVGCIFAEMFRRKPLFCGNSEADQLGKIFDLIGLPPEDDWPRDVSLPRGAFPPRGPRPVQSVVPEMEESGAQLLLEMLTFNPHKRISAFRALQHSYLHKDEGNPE

Where two headings read alike, the source gives them in different places. A value given as a limit tells only on which side of the number the result lay.

The term IC50 denotes the concentration that inhibits the measured activity by half.

One assay addresses CDK4 (Homo sapiens (Human), UniProt P11802). Briefly: In vitro kinase inhibition, luminescence (ADP-Glo) with retinoblastoma substrate. The assay is classed as biochemical. A general note: ADP-Glo first removes unused ATP, then detects ADP through luciferase.
The target in another assay is CDK6 (Homo sapiens (Human), UniProt Q00534). Nature of the assay: biochemical. The assay is classed as biochemical.

Consider `CC(C)N1CCOc2c(F)cc(-c3nc(Nc4ccc(N5CCC(N(C)C)CC5)cn4)ncc3F)cc21` [Compound 436, N-(5-(4-(dimethylamino)piperidin-1-yl)pyridin-2-yl)-5-fluoro-4-(8-fluoro-4-isopropyl-3,4-dihydro-2H-benzo[b][1,4]oxazin-6-yl)pyrimidin-2-amine], for which the IC50 against CDK4 came to 1.5 nM; on CDK6 (read-out: CDK6 IC50), 2 nM. Take `CC(C)N1CCOc2c(F)cc(-c3nc(Nc4ccc(N5CCC(N(C)C)CC5)nc4)ncc3F)cc21` [Compound 38, N-(6-(4-(dimethylamino)piperidin-1-yl)pyridin-3-yl)-5-fluoro-4-(8-fluoro-4-isopropyl-3,4-dihydro-2H-benzo[b][1,4]oxazin-6-yl)pyrimidin-2-amine]: at CDK6 (read-out: CDK6 IC50), the IC50 amounted to 2 nM. As for `CC(C)N1CCOc2c(F)cc(-c3nc(Nc4ccc(N5CCNCC5)nc4)ncc3F)cc21` [Compound 23, 5-fluoro-4-(8-fluoro-4-isopropyl-3,4-dihydro-2H-benzo[b][1,4]oxazin-6-yl)-N-(6-(piperazin-1-yl)pyridin-3-yl)pyrimidin-2-amine], the IC50 on CDK4 and on CDK6 (read-out: CDK6 IC50) was 2 nM each time.

For `CC(C)N1CCOc2c(F)cc(-c3nc(Nc4ccc(N5CCNCC5)c(C#N)c4)ncc3F)cc21` [Compound 21, 5-((5-fluoro-4-(8-fluoro-4-isopropyl-3,4-dihydro-2H-benzo[b][1,4]oxazin-6-yl)pyrimidin-2-yl)amino)-2-(piperazin-1-yl) benzonitrile], the IC50 is 6 nM on CDK4 and 8 nM at CDK6 (read-out: CDK6 IC50). Turning to `CC(C)N1CCOc2c(F)cc(-c3nc(Nc4ccc(N5CCC(C)(O)CC5)cn4)ncc3F)cc21` [Compound 484, 1-(6-((5-fluoro-4-(8-fluoro-4-isopropyl-3,4-dihydro-2H-benzo[b][1,4]oxazin-6-yl)pyrimidin-2-yl)amino)pyridin-3-yl)-4-methylpiperidin-4-ol], the IC50 at CDK6 (read-out: CDK6 IC50) stood at 93 nM. On the same count and under the same terms, the same measure for `CC1CN(C(=O)c2ccc(Nc3ncc(F)c(-c4cc(F)c5c(c4)N(C(C)C)CCO5)n3)nc2)CC(C)O1` (stereo not shown) [Compound 511, (2,6-dimethylmorpholino)(6-((5-fluoro-4-(8-fluoro-4-isopropyl-3,4-dihydro-2H-benzo[b][1,4]oxazin-6-yl)pyrimidin-2-yl)amino)pyridin-3-yl)methanone]: 16 nM.

As for `CC(C)N1CCOc2c(F)cc(-c3nc(Nc4ccc(N5CCNCC5)c(F)c4F)ncc3F)cc21` [Compound 28, N-(2,3-difluoro-4-(piperazin-1-yl)phenyl)-5-fluoro-4-(8-fluoro-4-isopropyl-3,4-dihydro-2H-benzo[b][1,4]oxazin-6-yl)pyrimidin-2-amine], the IC50 is 1 nM at CDK4 and 11 nM on CDK6 (read-out: CDK6 IC50). Turning to `CC(C)N1CCN(c2ccc(Nc3ncc(F)c(-c4cc(F)c5c(c4)N(C(C)C)CCO5)n3)cc2F)CC1` [Compound 17, 5-fluoro-N-(3-fluoro-4-(4-isopropylpiperazin-1-yl)phenyl)-4-(8-fluoro-4-isopropyl-3,4-dihydro-2H-benzo[b][1,4]oxazin-6-yl)pyrimidin-2-amine], the IC50 at CDK6 (read-out: CDK6 IC50) came to 3.5 nM. On the same count and under the same terms, the figure for `CC(C)N1CCOc2c(F)cc(-c3nc(Nc4ccc(N5CCC(N(C)C)CC5)c(F)c4)ncc3F)cc21` [Compound 25, N-(4-(4-(dimethylamino)piperidin-1-yl)-3-fluorophenyl)-5-fluoro-4-(8-fluoro-4-isopropyl-3,4-dihydro-2H-benzo[b][1,4]oxazin-6-yl)pyrimidin-2-amine] is 4 nM. In the case of `COc1cc(Nc2ncc(F)c(-c3cc(F)c4c(c3)N(C(C)C)CCO4)n2)ccc1N1CCNCC1` [Compound 29, 5-fluoro-4-(8-fluoro-4-isopropyl-3,4-dihydro-2H-benzo[b][1,4]oxazin-6-yl)-N-(3-methoxy-4-(piperazin-1-yl)phenyl)pyrimidin-2-amine], the IC50 against CDK4 worked out at 1 nM; on CDK6 (read-out: CDK6 IC50), 13 nM. The matching figures for `CC(C)N1CCOc2c(F)cc(-c3nc(Nc4ccn(C5=CCNCC5)c(=O)c4)ncc3F)cc21` [Compound 39, 4-((5-fluoro-4-(8-fluoro-4-isopropyl-3,4-dihydro-2H-benzo[b][1,4]oxazin-6-yl)pyrimidin-2-yl)amino)-1′,2′,3′,6′-tetrahydro-2H-[1,4′-bipyridin]-2-one]: 4 nM and 7.5 nM.

For the compound `CC(C)N1CCOc2c(F)cc(-c3nc(Nc4cc(C5CCN(C)CC5)n[nH]4)ncc3F)cc21` [Compound 499, 5-fluoro-4-(8-fluoro-4-isopropyl-3,4-dihydro-2H-benzo[b][1,4]oxazin-6-yl)-N-(3-(1-methylpiperidin-4-yl)-1H-pyrazol-5-yl)pyrimidin-2-amine], the values for the IC50 against CDK4 and on CDK6 (read-out: CDK6 IC50) were 15 nM and 26 nM, respectively. As for `CC(C)N1CCOc2c(F)cc(-c3nc(Nc4ccc(N5CCN(C)CC5=O)cn4)ncc3F)cc21` [Compound 472, 1-(6-((5-fluoro-4-(8-fluoro-4-isopropyl-3,4-dihydro-2H-benzo[b][1,4]oxazin-6-yl)pyrimidin-2-yl)amino)pyridin-3-yl)-4-methylpiperazin-2-one], on CDK6, inhibition was half-maximal at 5 nM (IC50). As for `CC(C)N1CCOc2c(F)cc(-c3nc(Nc4ccc(N5CCNCC5)cc4F)ncc3F)cc21` [Compound 11, 5-fluoro-N-(2-fluoro-4-(piperazin-1-yl)phenyl)-4-(8-fluoro-4-isopropyl-3,4-dihydro-2H-benzo[b][1,4]oxazin-6-yl)pyrimidin-2-amine], the values for the IC50 at CDK4 and on CDK6 (read-out: CDK6 IC50) were 6 nM and 8 nM, respectively. As to `CC(C)N1CCOc2c(F)cc(-c3nc(Nc4ccc(N5CCC(N(C)C)CC5)c(C(F)(F)F)c4)ncc3F)cc21` [Compound 178, N-(4-(4-(dimethylamino)piperidin-1-yl)-3-(trifluoromethyl)phenyl)-5-fluoro-4-(8-fluoro-4-isopropyl-3,4-dihydro-2H-benzo[b][1,4]oxazin-6-yl)pyrimidin-2-amine], the IC50 on CDK6 (read-out: CDK6 IC50) was determined as 98 nM. On to `CC(C)N1CCOc2c(F)cc(-c3nc(Nc4ccc(N5CCN(C)CC5)c(F)c4)ncc3F)cc21` [Compound 14, 5-fluoro-N-(3-fluoro-4-(4-methylpiperazin-1-yl)phenyl)-4-(8-fluoro-4-isopropyl-3,4-dihydro-2H-benzo[b][1,4]oxazin-6-yl) pyrimidin-2-amine], for which the IC50 at CDK4 was found to be 3.5 nM; on CDK6 (read-out: CDK6 IC50) it was 2 nM. Taken in the same sequence, the figures for `CC(C)N1CCOc2c(F)cc(-c3nc(Nc4cn(C5CCNCC5)cn4)ncc3F)cc21` [Compound 504, 5-fluoro-4-(8-fluoro-4-isopropyl-3,4-dihydro-2H-benzo[b][1,4]oxazin-6-yl)-N-(1-(piperidin-4-yl)-1H-imidazol-4-yl)pyrimidin-2-amine] were 141 nM and more than 200 nM. On CDK4, `CC(C)N1CCOc2c(F)cc(-c3nc(Nc4cnn(C5CCN(C)CC5)c4)ncc3F)cc21` [Compound 497, 5-fluoro-4-(8-fluoro-4-isopropyl-3,4-dihydro-2H-benzo[b][1,4]oxazin-6-yl)-N-(1-(1-methylpiperidin-4-yl)-1H-pyrazol-4-yl)pyrimidin-2-amine] came in with an IC50 of 6 nM. Turning to `CC(C)N1CCOc2c(F)cc(-c3nc(Nc4ccc5c(c4)CCNC5)ncc3F)cc21` [Compound 13, N-(5-fluoro-4-(8-fluoro-4-isopropyl-3,4-dihydro-2H-benzo[b][1,4]oxazin-6-yl)pyrimidin-2-yl)-1,2,3,4-tetrahydroisoquinolin-6-amine], on CDK6 (read-out: CDK6 IC50), the IC50 was 1.5 nM. Turning to `CCN1CCN(Cc2ccc(Nc3ncc(F)c(-c4cc(F)c5c(c4)N(C(C)C)CCO5)n3)nc2)CC1` [Compound 4, N-(5-((4-ethylpiperazin-1-yl)methyl)pyridin-2-yl)-5-fluoro-4-(8-fluoro-4-isopropyl-3,4-dihydro-2H-benzo[b][1,4]oxazin-6-yl)pyrimidin-2-amine], on CDK4, the IC50 was 0.7 nM.

On to `CC(C)N1CCOc2c(F)cc(-c3nc(Nc4ccc(N5CCC(CCO)CC5)cn4)ncc3F)cc21` [Compound 491, 2-(1-(6-((5-fluoro-4-(8-fluoro-4-isopropyl-3,4-dihydro-2H-benzo[b][1,4]oxazin-6-yl)pyrimidin-2-yl)amino)pyridin-3-yl)piperidin-4-yl)ethan-1-ol], for which, at CDK6 (read-out: CDK6 IC50), the IC50 was found to be 31 nM.

Turning to `CC(=O)N1CCN(c2ccc(Nc3ncc(F)c(-c4cc(F)c5c(c4)N(C(C)C)CCO5)n3)nc2)CC1` [Compound 474, 1-(4-(6-((5-fluoro-4-(8-fluoro-4-isopropyl-3,4-dihydro-2H-benzo[b][1,4]oxazin-6-yl)pyrimidin-2-yl)amino)pyridin-3-yl)piperazin-1-yl)ethan-1-one], on CDK6 (read-out: CDK6 IC50), the IC50 was found to be 4.5 nM. In the case of `CC(C)N1CCOc2c(F)cc(-c3nc(Nc4ccn(C5CCNCC5)c(=O)c4)ncc3F)cc21` [Compound 437, 4-((5-fluoro-4-(8-fluoro-4-isopropyl-3,4-dihydro-2H-benzo[b][1,4]oxazin-6-yl)pyrimidin-2-yl)amino)-1-(piperidin-4-yl)pyridin-2(1H)-one], the IC50 on CDK6 (read-out: CDK6 IC50) was 5 nM.

Regarding `CC(C)N1CCOc2c(F)cc(-c3nc(Nc4ccc(N5CCSCC5)c(F)c4)ncc3F)cc21` [Compound 469, 5-fluoro-4-(8-fluoro-4-isopropyl-3,4-dihydro-2H-benzo[b][1,4]oxazin-6-yl)-N-(3-fluoro-4-thiomorpholinophenyl)pyrimidin-2-amine], the IC50 on CDK6 (read-out: CDK6 IC50) came out at 200 nM. For the compound `CC(C)N1CCOc2c(F)cc(-c3nc(Nc4ccc(N5CCN6CCCC6C5)c(F)c4)ncc3F)cc21` (stereo not shown) [Compound 473, 5-fluoro-N-(3-fluoro-4-(hexahydropyrrolo[1,2-a]pyrazin-2(1H)-yl)phenyl)-4-(8-fluoro-4-isopropyl-3,4-dihydro-2H-benzo[b][1,4]oxazin-6-yl)pyrimidin-2-amine], the IC50 on CDK6 (read-out: CDK6 IC50) is 105 nM. Still for that read-out and setting: the figure for `CC(C)N1CCOc2c(F)cc(-c3nc(Nc4ccc5c(n4)CCNC5)ncc3F)cc21` [Compound 481, N-(5-fluoro-4-(8-fluoro-4-isopropyl-3,4-dihydro-2H-benzo[b][1,4]oxazin-6-yl)pyrimidin-2-yl)-5,6,7,8-tetrahydro-1,6-naphthyridin-2-amine] is 4 nM; for `CC(C)N1CCOc2c(F)cc(-c3nc(Nc4cnn(C5CCNCC5)c4)ncc3F)cc21` [Compound 448, 5-fluoro-4-(8-fluoro-4-isopropyl-3,4-dihydro-2H-benzo[b][1,4]oxazin-6-yl)-N-(1-(piperidin-4-yl)-1H-pyrazol-4-yl)pyrimidin-2-amine] it is 8.8 nM.
